Reference: US20090192095A1 (priority 2008, published 2009)

Details: HPLC

CO[C@]12CC[C@@]3(C[C@@H]1[C@@](C)(O)C(C)(C)C)[C@H]1Cc4ccc(OC(=O)NC(C(=O)O)C(C)C)c5c4[C@@]3(CCN1CC1CC1)[C@H]2O5 (stereo partly drawn)
Distilled water (pH 5.9): % remaining after 2 h/20° C. (distilled water pH 5.9, 2 h, 20° C.): 100%
Simulated gastric fluid (pH 1.1): % remaining after 2 h/37° C. (simulated gastric fluid pH 1.1, 2 h, 37° C.): 100%
Simulated intestinal fluid (pH 6.8): % remaining after 2 h/37° C. (simulated intestinal fluid pH 6.8, 2 h, 37° C.): 98%
